From patent US12661410B2, “Compounds for targeted degradation of RET” (C4 Therapeutics, Inc., priority 2020, dated 2026)
Read-outs that look alike come from different tables or passages of the source.

Protein sequences, listed by entry. Tags and fused reporters are not part of them. Lines headed by an entry give the natural chain unless they say otherwise; changes in a name come on top. Residues count along the entry.
UniProt P07949, 658-1114 G810R limits assumed: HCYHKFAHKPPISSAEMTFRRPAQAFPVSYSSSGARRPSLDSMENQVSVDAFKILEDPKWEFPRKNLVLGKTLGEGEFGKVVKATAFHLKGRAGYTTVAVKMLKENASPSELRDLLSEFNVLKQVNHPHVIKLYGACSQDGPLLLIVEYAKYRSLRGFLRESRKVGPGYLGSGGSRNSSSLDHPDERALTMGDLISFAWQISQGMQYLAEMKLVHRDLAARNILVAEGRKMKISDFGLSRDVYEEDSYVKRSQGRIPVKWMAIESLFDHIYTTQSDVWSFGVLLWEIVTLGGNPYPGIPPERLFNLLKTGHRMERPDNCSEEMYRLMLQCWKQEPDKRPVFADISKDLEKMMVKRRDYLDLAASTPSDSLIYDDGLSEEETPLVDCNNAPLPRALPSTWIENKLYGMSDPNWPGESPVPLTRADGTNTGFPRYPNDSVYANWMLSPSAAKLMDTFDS
UniProt P07949, 658-1114 limits assumed: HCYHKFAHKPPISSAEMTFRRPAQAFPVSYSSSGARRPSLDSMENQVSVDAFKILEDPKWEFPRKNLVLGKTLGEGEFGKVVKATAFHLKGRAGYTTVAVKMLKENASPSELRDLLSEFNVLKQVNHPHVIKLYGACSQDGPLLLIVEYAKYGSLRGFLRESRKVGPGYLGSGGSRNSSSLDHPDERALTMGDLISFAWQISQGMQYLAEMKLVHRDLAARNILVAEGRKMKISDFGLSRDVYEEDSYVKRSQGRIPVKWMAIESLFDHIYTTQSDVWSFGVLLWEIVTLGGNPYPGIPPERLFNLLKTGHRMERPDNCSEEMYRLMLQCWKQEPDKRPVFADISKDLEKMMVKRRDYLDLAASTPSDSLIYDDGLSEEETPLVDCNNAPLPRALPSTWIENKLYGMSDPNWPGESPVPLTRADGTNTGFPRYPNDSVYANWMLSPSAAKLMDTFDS

Key:
RET(KD: 658-1114 G810R) = RET(KD: 658-1114 G810R) (Homo sapiens, UniProt P07949, G810R); test: HiBiT-Degradation, RET G810R degradation assay (Nano-Glo HiBiT Lytic), 293T.165 cells
Description: (§1) Dulbecco's modified Eagle medium (DMEM) no-phenol red media and fetal bovine serum (FBS) were purchased from Gibco (Grand Island, NY, USA). Cell lines ectopically expressing wild-type or G810R RET kinase domain fused with a HiBiT tag were generated in-house (293T. 144 and 293T. 165, respectively). Cell culture flasks and 384-well microplates were acquired from VWR (Radnor, PA, USA). The Nano-Glo® HiBiT Lytic Assay System was purchased from Promega (Madison, WI, USA).
(§2) RET wild-type (WT) and G810R degradation were assessed using the Nano-Glo® HiBiT Lytic assay (Promega, Medison, WI, USA). To determine the effect of degraders on protein levels, cells were plated in 384-well plates and treated with compounds of interest in duplicates for 6 hours using an 11-point half-log dilution series, with the highest dose set at 10 μM. Cell lysis and addition of the Nano-Glo® HiBiT Lytic Assay reagents was then performed. Luminescence signal was measured using an EnVision™ Multimode plate reader (Perkin Elmer, Santa Clara, CA, USA). The half-maximal degradation concentration (DC50) and % remaining protein (Emax) was then derived from the dose-response curves.

RET (658-1114) = RET (658-1114) (Homo sapiens, UniProt P07949); test: HiBiT-Degradation, RET wild-type degradation assay (Nano-Glo HiBiT Lytic), 293T.144 cells
Description: as §1, §2

[1] = half-maximal degradation concentration
[2] = read-out: 293T.144 RET (658-1114) 6.0 hours (DC50), half-maximal degradation concentration

| 293T.165 RET(KD: 658-1114 G810R) 6.0 hours (DC50) [nM] (RET(KD: 658-1114 G810R); HiBiT-Degradation) | 293T.165 RET(KD: 658-1114 G810R) 6.0 hours (Emax) (RET(KD: 658-1114 G810R); HiBiT-Degradation) | 293T.165 RET(KD: 658-1114 G810R) 6.0 hours (IP) [nM] (RET(KD: 658-1114 G810R); HiBiT-Degradation) | 293T.144 RET (658-1114) 6.0 hours (Emax) (RET (658-1114); HiBiT-Degradation) | 293T.144 RET (658-1114) 6.0 hours (IP) [nM] (RET (658-1114); HiBiT-Degradation) | DC50 (RET (658-1114); read-out: 293T.144 RET (658-1114) 6.0 hours (DC50), HiBiT-Degradation) [nM] | SMILES | 293T.165 RET(KD: 658-1114 G810R) 6.0 hours (IP) [nM] (RET(KD: 658-1114 G810R)) | 293T.165 RET(KD: 658-1114 G810R) 6.0 hours (Emax) (RET(KD: 658-1114 G810R); % remaining protein) | 293T.165 RET(KD: 658-1114 G810R) 6.0 hours (DC50) [nM] (RET(KD: 658-1114 G810R); [1]) | 293T.144 RET (658-1114) 6.0 hours (IP) [nM] (RET (658-1114)) | 293T.144 RET (658-1114) 6.0 hours (Emax) (RET (658-1114); % remaining protein) | DC50 (RET (658-1114); [2]) [nM] |
| --- | --- | --- | --- | --- | --- | --- | --- | --- | --- | --- | --- | --- |
| – | – | – | – | – | – | COc1cc(N2CCN(C3CCC(n4cc(-c5cn6ncc(C#N)c6c(-c6ccc(N7CC8COCC(C7)N8C(=O)c7c(F)cccc7F)nc6)n5)cn4)CC3)CC2)c(F)cc1NC1CCC(=O)NC1=O (centres unmarked) | ++++ (<50 nM = ++++) | ++++ (<30% = ++++) | ++++ (<50 nM = ++++) | ++++ (<50 nM = ++++) | ++++ (<30% = ++++) | < 50 |
| ++++ (< 50 nM = ++++) | ++++ (< 30% = ++++) | ++++ (< 50 nM = ++++) | ++++ (< 30% = ++++) | ++++ (< 50 nM = ++++) | < 50 | CCC1(C(=O)NC(C)C)CCN(c2ccc(-c3nc(-c4cnn(C5CCN(C(=O)CC6(O)CCN(c7ccc(N[C@H]8CCC(=O)NC8=O)cc7Cl)CC6)CC5)c4)cn4ncc(C#N)c34)cn2)CC1 (single isomer, unassigned) | – | ++++ (<30% = ++++) | ++++ (<50 nM = ++++) | – | – | – |
| – | – | – | – | – | – | CCC1(C(=O)NC2CCC2)CCN(c2ccc(-c3nc(-c4cnn([C@H]5CC[C@H](N6CCN(c7ccc8c(c7)CCN8[C@@H]7CCC(=O)NC7=O)CC6)CC5)c4)cn4ncc(C#N)c34)cn2)CC1 (single isomer, unassigned) | ++++ (<50 nM = ++++) | +++ (<50% = +++) | +++ (<100 nM = +++) | ++++ (<50 nM = ++++) | ++++ (<30% = ++++) | < 50 |
